Assay results from PubChem BioAssay AID624267 (The Scripps Research Institute Molecular Screening Center, 2012).
The list shows a part of the results, in another mix than the full data. Activity calls are given as the source filed them. Cut-off read from the data, not from the text of the source: active = inhibition above about 21%; inactive = the rest.

Chains of the proteins cited; added tags and fusions are not shown.
UniProt O43353, whole entry: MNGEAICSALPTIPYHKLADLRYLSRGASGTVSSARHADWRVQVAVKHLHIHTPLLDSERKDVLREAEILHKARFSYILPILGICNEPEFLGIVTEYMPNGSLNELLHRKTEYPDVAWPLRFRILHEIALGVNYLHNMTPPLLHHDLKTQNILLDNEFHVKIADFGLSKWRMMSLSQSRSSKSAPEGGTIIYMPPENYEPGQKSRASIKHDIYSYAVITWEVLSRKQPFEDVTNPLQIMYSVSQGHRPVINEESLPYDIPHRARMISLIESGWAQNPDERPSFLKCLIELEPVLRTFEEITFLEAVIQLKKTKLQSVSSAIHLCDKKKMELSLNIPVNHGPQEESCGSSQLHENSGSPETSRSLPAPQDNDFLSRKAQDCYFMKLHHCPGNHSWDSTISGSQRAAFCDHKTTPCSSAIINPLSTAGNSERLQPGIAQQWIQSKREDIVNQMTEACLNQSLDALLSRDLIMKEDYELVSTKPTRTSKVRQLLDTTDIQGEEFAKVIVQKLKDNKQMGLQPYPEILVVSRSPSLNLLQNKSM

molecular target: Receptor-interacting serine/threonine-protein kinase 2 (Homo sapiens) (UniProt O43353); assay: NOD2-RIPK2 binding disruptors in cells, primary screen, fluorescence, CHO cells, BLA complementation (AID 624267); conditions: CHO BLA complementation NOD2-RIPK2, CCF4 ratio; at 4.98 µM; stronger effect = higher value;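 note: 0% = vehicle only and 100% = reference blocker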

Which inhibition does the source give for CN1CCC(Nc2ccc(Cl)cc2)CC1 here?
The inhibition was inactive: -1.03%.

With CCC(CO)(C(=O)OC1CN2CCC1CC2)c1ccccc1 (centres undefined) as the compound, how does the inhibition read?
The inhibition was inactive: 4.33%.

COc1cc(OC)cc(C(=O)NCC2(N3CCOCC3)CCCCC2)c1 was tested. Which inhibition did it give?
Its inhibition is inactive: -12.1%.

How did the inhibition turn out when COc1cccc(C(c2nnnn2C2CCCC2)N2CCC(n3c(=O)[nH]c4ccccc43)CC2)c1OC (centres undefined) was run?
The inhibition was inactive: -4.93%.

How did the inhibition turn out when COc1cccc(C(=O)N(c2cc(C)cc(C)c2)C2CCN(C(=O)OC(C)(C)C)CC2)c1 was run?
The inhibition was inactive: -2.88%.

O=c1[nH]c2ccccc2n1C1CCN(C(c2cc3ccccc3o2)c2nnnn2C2CCCC2)CC1 (centres undefined) was tested. Which inhibition did it give?
The inhibition was inactive: 5.35%.

For CCCOc1ccc(C(=O)NCC2(N(C)C)CCCCC2)cc1, which inhibition is on record?
Its inhibition is inactive: -1.03%.

For CC(C)(C)OC(=O)N1CCC(Nc2ccccc2)CC1, which inhibition is on record?
The inhibition was inactive: -9.15%.

How did the inhibition turn out when O=C(O)C1(Nc2ccccc2)CCN(Cc2ccccc2)CC1 was run?
The inhibition was inactive: -5.94%.

With NN(c1ccccc1)C1CCN(CCc2ccccc2)CC1 as the compound, how does the inhibition read?
The inhibition was inactive: 13.7%.

With CCOc1ncccc1C(=O)NCC1(N2CCOCC2)CCCCC1 as the compound, how does the inhibition read?
The inhibition was inactive: 3.73%.

With CN1CCC(Nc2ccc(F)c(Cl)c2)CC1 as the compound, how does the inhibition read?
Its inhibition is inactive: 3.78%.

With O=C(NCC1(N2CCCCC2)CCCCC1)c1ccco1 as the compound, how does the inhibition read?
The inhibition was inactive: -13.3%.

Which inhibition does the source give for CN(C)c1ccc(C(=O)NCC2(N3CCCCC3)CCCCC2)cc1 here?
The inhibition was inactive: 4.58%.

For Cn1c(=O)[nH]cc(N(CCCl)CCCl)c1=O, which inhibition is on record?
Its inhibition is inactive: -5.71%.

How did the inhibition turn out when Cc1ccccc1NC1(C#N)CCN(Cc2ccccc2)CC1 was run?
The inhibition was inactive: -7.58%.

Which inhibition does the source give for COc1ccc(C(c2nnnn2C2CCCCC2)N2CCC(n3c(=O)[nH]c4ccccc43)CC2)cc1 (centres undefined) here?
Its inhibition is inactive: 11.6%.

CCN1CCC(Nc2cccc(F)c2)CC1 was tested. Which inhibition did it give?
The inhibition was inactive: 5.45%.

CC(C)(C)n1nnnc1C(c1ccnc2ccccc12)N1CCC(n2c(=O)[nH]c3ccccc32)CC1 (centres undefined) was tested. Which inhibition did it give?
Its inhibition is inactive: -20.9%.

Cc1ccc(NC2(C#N)CCN(Cc3ccccc3)CC2)cc1 was tested. Which inhibition did it give?
Its inhibition is inactive: -5.92%.

How did the inhibition turn out when Cc1ccc(C(=O)NCC2(N3CCCCC3)CCCCC2)o1 was run?
Its inhibition is inactive: -4.38%.

With Fc1ccccc1NC1CCN(Cc2ccccc2)CC1 as the compound, how does the inhibition read?
Its inhibition is inactive: 8.14%.

With COc1cc(OC)cc(C(=O)NCC2(N3CCCCC3)CCCCC2)c1 as the compound, how does the inhibition read?
Its inhibition is inactive: -2.42%.

O=c1[nH]c2ccccc2n1C1CCN(C(c2ccnc3ccccc23)c2nnnn2C2CCCCC2)CC1 (centres undefined) was tested. Which inhibition did it give?
The inhibition was inactive: 3.97%.

COc1cccc(C(c2nnnn2C2CCCCC2)N2CCC(n3c(=O)[nH]c4ccccc43)CC2)c1OC (centres undefined) was tested. Which inhibition did it give?
Its inhibition is inactive: -11.2%.

CC(=O)N(c1ccccc1)C1CCNCC1 was tested. Which inhibition did it give?
The inhibition was inactive: -13.7%.

CCC(c1nnnn1C1CCCCC1)N1CCC(n2c(=O)[nH]c3ccccc32)CC1 (centres undefined) was tested. Which inhibition did it give?
Its inhibition is inactive: -5.19%.

Which inhibition does the source give for CC(C)(C)n1nnnc1C(c1cccc2ccccc12)N1CCC(n2c(=O)[nH]c3ccccc32)CC1 (centres undefined) here?
The inhibition was inactive: 1.25%.

For c1ccc(CN2CCC(Nc3ccccc3)CC2)cc1, which inhibition is on record?
Its inhibition is inactive: 1.32%.

How did the inhibition turn out when CCCN1CCC(Nc2cc(OC)cc(OC)c2)CC1 was run?
The inhibition was inactive: 5.47%.

How did the inhibition turn out when O=c1[nH]c2ccccc2n1C1CCN(C(c2ccccc2)c2nnnn2C2CCCC2)CC1 (centres undefined) was run?
The inhibition was inactive: 3.27%.

How did the inhibition turn out when Cc1cc(N(CCCl)CCCl)ccc1C=O was run?
The inhibition was inactive: 0.57%.

For CN(C)C1(CNC(=O)c2cccc(C#N)c2)CCCCC1, which inhibition is on record?
Its inhibition is inactive: -17%.

With CC(C)(C)OC(=O)N1CCC(N(C(=O)c2ccccc2)c2ccc(Cl)cc2)CC1 as the compound, how does the inhibition read?
Its inhibition is inactive: -22.7%.

How did the inhibition turn out when N#Cc1ccc(C(=O)NCC2(N3CCCCC3)CCCCC2)cc1 was run?
Its inhibition is inactive: 0.63%.

Which inhibition does the source give for CCCCn1nnnc1C(c1cccc(OC)c1OC)N1CCC(n2c(=O)[nH]c3ccccc32)CC1 (centres undefined) here?
Its inhibition is inactive: -9.34%.

O=C(OC1CN2CCC1CC2)C1c2ccccc2C=Cc2ccccc21 (centres undefined) was tested. Which inhibition did it give?
Its inhibition is inactive: 0.02%.

O=c1[nH]c2ccccc2n1C1CCN(C(c2cccs2)c2nnnn2C2CCCC2)CC1 (centres undefined) was tested. Which inhibition did it give?
Its inhibition is inactive: 0.94%.

Which inhibition does the source give for N/C(=N\O)c1c(N)no[n+]1[O-] here?
Its inhibition is inactive: -10%.

How did the inhibition turn out when CCOC(=O)N1CCC(Nc2ccc(C)cc2)CC1 was run?
Its inhibition is inactive: -0.92%.

With COc1cccc(C(c2nnnn2C(C)(C)C)N2CCC(n3c(=O)[nH]c4ccccc43)CC2)c1OC (centres undefined) as the compound, how does the inhibition read?
The inhibition was inactive: -1.69%.

For COc1ccc(C(=O)NCC2(N3CCOCC3)CCCCC2)cc1OC, which inhibition is on record?
Its inhibition is inactive: -5.5%.

For O=c1[nH]c2ccccc2n1C1CCN(C(c2ccnc3ccccc23)c2nnnn2C2CCCC2)CC1 (centres undefined), which inhibition is on record?
Its inhibition is inactive: 0.93%.

With O=c1[nH]c2ccccc2n1C1CCN(C(c2cccs2)c2nnnn2C2CCCCC2)CC1 (centres undefined) as the compound, how does the inhibition read?
Its inhibition is inactive: 0.72%.

Which inhibition does the source give for O=C(NCC1(N2CCOCC2)CCCCC1)c1cc(Br)ccc1Cl here?
The inhibition was inactive: -6.61%.

Which inhibition does the source give for CCCCn1nnnc1C(c1ccccc1)N1CCC(n2c(=O)[nH]c3ccccc32)CC1 (centres undefined) here?
The inhibition was inactive: 13.2%.

Which inhibition does the source give for COc1cc(C(=O)NCC2(N3CCOCC3)CCCCC2)cc(OC)c1C here?
Its inhibition is inactive: -12.2%.

With Cc1ccc(C(=O)NCC2(N(C)C)CCCCC2)o1 as the compound, how does the inhibition read?
The inhibition was inactive: -9.8%.

For CCCOc1ccc(C(=O)NCC2(N(C)C)CCCCC2)cc1OC, which inhibition is on record?
Its inhibition is inactive: 3.44%.

For COc1ccc(C(c2nnnn2C2CCCC2)N2CCC(n3c(=O)[nH]c4ccccc43)CC2)cc1 (centres undefined), which inhibition is on record?
Its inhibition is inactive: -6.98%.

With CN1CCC(Nc2cccc(F)c2)CC1 as the compound, how does the inhibition read?
Its inhibition is inactive: -10.3%.

For O=C(NCC1(N2CCCCC2)CCCCC1)c1cncc(Br)c1, which inhibition is on record?
The inhibition was inactive: -6.16%.

CCCCn1nnnc1C(c1ccnc2ccccc12)N1CCC(n2c(=O)[nH]c3ccccc32)CC1 (centres undefined) was tested. Which inhibition did it give?
Its inhibition is inactive: 1.16%.

For COc1cc(OC)c(C(=O)NCC2(N(C)C)CCCCC2)cc1OC, which inhibition is on record?
Its inhibition is inactive: -9.52%.
